The text below walks through data of PubChem BioAssay AID640 (Columbia University Molecular Screening Center, 2007).

Amino acid sequences for entries named in this document (tags omitted).
UniProt Q9Y2R2, whole entry: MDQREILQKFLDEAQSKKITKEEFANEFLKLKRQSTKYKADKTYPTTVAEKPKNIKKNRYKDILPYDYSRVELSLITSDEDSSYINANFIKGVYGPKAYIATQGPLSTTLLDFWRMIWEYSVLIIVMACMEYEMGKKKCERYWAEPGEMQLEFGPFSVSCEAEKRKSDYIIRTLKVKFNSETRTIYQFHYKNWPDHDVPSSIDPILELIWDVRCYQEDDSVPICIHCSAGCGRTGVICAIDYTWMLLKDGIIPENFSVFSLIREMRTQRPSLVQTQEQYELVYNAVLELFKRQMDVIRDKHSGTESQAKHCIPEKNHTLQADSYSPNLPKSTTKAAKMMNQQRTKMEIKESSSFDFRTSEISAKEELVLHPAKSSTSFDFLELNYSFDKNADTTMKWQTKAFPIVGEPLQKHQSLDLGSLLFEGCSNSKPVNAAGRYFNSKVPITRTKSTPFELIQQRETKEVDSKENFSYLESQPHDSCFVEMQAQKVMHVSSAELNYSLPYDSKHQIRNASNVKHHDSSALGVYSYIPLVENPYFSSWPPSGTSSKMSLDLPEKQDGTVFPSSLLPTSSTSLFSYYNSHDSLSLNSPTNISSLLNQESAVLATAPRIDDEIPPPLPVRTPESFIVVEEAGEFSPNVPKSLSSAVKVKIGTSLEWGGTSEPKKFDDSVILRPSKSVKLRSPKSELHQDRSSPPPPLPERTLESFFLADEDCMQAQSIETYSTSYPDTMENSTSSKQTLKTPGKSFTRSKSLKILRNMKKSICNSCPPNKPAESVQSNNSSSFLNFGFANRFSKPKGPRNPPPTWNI

Structures are written as SMILES. The entries are a selection whose mix differs from that of the whole data set. The source made the active and inactive calls.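 Rule for the calls: active = inhibition at 2 µM at or above a set limit, the screen mean plus 3 SD (cut at about 24% in these data); inactive = the rest.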

The assay addresses Tyrosine-protein phosphatase non-receptor type 22 (Homo sapiens) (UniProt Q9Y2R2). As to the kind of experiment: blockers of human LYP enzyme activity – biochemical, DiFMUP fluorescence, 2 µM, primary screen (AID 640).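 Note: 0% = DMSO with enzyme and 100% = enzyme fully blocked by orthovanadate.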 The following applies: recombinant LYP catalytic domain, at 2 µM, stronger effect = higher value.
By inhibition is commonly meant the drop in the measured response relative to a control, in per cent. With `CCOc1ncccc1C(=O)NCC1(N2CCOCC2)CCCCC1`, the inhibition was inactive: -2.3%. For `CCC(CO)(C(=O)OC1CN2CCC1CC2)c1ccccc1` (stereo not given) the value was inactive: 0.6%; for `N/C(=N\O)c1c(N)no[n+]1[O-]`, inactive: -5.8%; for `c1ccc(CN2CCC(Nc3ccccc3)CC2)cc1`, inactive: 13%. Under `N#CC1(Nc2ccccc2)CCN(CCc2ccccc2)CC1` stands inactive: -1.3%; under `O=C(NCC1(N2CCOCC2)CCCCC1)c1cc(=O)[nH]c2ccccc12`, inactive: 4%; under `CN1CCC(Nc2cccc(F)c2)CC1`, inactive: 0.2%.

For the molecule `O=C(NCC1(N2CCOCC2)CCCCC1)c1cc2ccccc2o1`, the inhibition is inactive: 9.1%.

As to `O=C(OC1CN2CCC1CC2)C1c2ccccc2Oc2ccccc21` (stereo not given), the inhibition is inactive: -6.6%. Under `COc1ccc(NC2CCN(CCc3ccccc3)CC2)c(OC)c1` stands inactive: 3%.
